Tests used:
αSyn [1] = target: T1, αSyn (Homo sapiens, UniProt P37840); assay: αSyn protofibril formation in vitro; format: biochemical; conditions: molar ratio 1:2 (DJ-1: αSyn), 2 h at 55° C.
Excerpt: The analysis of DJ-1 chaperone function to a candidate DJ-1 substrate, αSyn (FIG. 23) was extended. The aggregation of αSyn has been implicated in familial and sporadic forms of PD, as mutations associated with autosomal dominant familial primary Parkinsonism alter the propensity of αSyn to aggregate (Conway et al. 2000a), and as αSyn fibrils are a major constituent of the Lewy body intracytoplasmic inclusions that typify PD pathology (Spillantini et al. 1997). In vitro, monomeric αSyn is disordered or “natively unfolded” in dilute solution (Weinreb et al. 1996). Incubation of purified WT human αSyn for 2 h at 55° C. results in the generation of high molecular weight multimers that likely represent protofibrils (FIGS. 23A and 23B) (Volles et al. 2001; Gosavi et al. 2002).
αSyn protofibril and fibril formation assays were performed essentially as described (Uversky et al.). […] Samples were mixed with SDS loading buffer and analyzed by SDS-PAGE and Western blotting using αSyn LB509 antibody (Zymed). Quantitation of high molecular weight αSyn was performed using NIH Image J. Integrated pixel intensity of high molecular weight synuclein for each sample was normalized to monomeric synuclein intensity. […] Fibril formation was assessed by Congo red (Conway et al. 2000b).

αSyn [2] = target: T1, αSyn; assay: αSyn Congo red-positive fibril formation in vitro; format: biochemical; conditions: 200 μM αSyn, proteins 100 μM, 1 wk at 37° C.
Procedure: Because DJ-1 chaperone activity is effective at inhibiting the accumulation of αSyn protofibrils, the inventors sought to investigate the role of this activity in the generation of Congo red-positive mature fibrils. […] Thus, DJ-1 seems to inhibit formation of αSyn fibrils by preventing formation of αSyn high molecular weight oligomers, or protofibrils.
αSyn protofibril and fibril formation assays were performed essentially as described (Uversky et al.). Briefly, protofibrils were formed by incubation of 200 μM WT synuclein with 100 μM DJ-1 or control chaperone protein in PBS for 2 h at 55° C. Samples were mixed with SDS loading buffer and analyzed by SDS-PAGE and Western blotting using αSyn LB509 antibody (Zymed). Quantitation of high molecular weight αSyn was performed using NIH Image J. Integrated pixel intensity of high molecular weight synuclein for each sample was normalized to monomeric synuclein intensity. For fibril formation, αSyn and chaperone proteins (as described above) were incubated with shaking for 1 wk at 37° C. Fibril formation was assessed by Congo red (Conway et al. 2000b).

B1: L166P DJ-1: Parkinsonism-associated L166P mutant of human DJ-1, recombinant or plasmid-expressed (protein, UniProt Q99497 1-189, looked up, variant L166P)
chain: MASKRALVILAKGAEEMETVIPVDVMRRAGIKVTVAGLAGKDPVQCSRDVVICPDASLEDAKKEGPYDVVVLPGGNLGAQNLSESAAVKEILKEQENRKGLIAAICAGPTALLAHEIGFGSKVTTHPLAKDKMMNGGHYTYSENRVEKDGLILTSRGPGTSFEFAPAIVEALNGKEVAAQVKAPLVLKD
- formation of soluble αSyn protofibrils (αSyn [1]): failed to inhibit
- formation of Congo red-positive αSyn fibrils (αSyn [2]): did not

Reference: patent US20060171935A1, “Protecting cell therapy for neurological disorders including Parkinson's disease” (priority 2005, published 2006)
